Laboratory results reported in PubChem BioAssay AID1259371 (The Scripps Research Institute Molecular Screening Center, 2018).

The chains behind the UniProt entries cited, without tags or fusion partners.
UniProt O75030, whole entry: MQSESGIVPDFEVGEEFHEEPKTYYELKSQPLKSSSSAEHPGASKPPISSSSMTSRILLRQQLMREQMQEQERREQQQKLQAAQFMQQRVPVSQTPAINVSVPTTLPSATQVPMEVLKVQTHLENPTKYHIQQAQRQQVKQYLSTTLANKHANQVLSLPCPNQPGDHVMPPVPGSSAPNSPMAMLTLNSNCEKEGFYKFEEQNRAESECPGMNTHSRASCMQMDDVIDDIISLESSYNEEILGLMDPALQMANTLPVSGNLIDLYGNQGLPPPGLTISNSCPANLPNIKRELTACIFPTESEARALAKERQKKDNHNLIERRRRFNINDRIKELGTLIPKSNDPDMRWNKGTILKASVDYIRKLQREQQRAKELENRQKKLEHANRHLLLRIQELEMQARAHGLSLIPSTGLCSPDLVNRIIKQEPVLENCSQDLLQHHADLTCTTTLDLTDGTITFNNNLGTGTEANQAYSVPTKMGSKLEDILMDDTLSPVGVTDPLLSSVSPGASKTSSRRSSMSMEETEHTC

Molecular target: Microphthalmia-associated transcription factor (Homo sapiens) (UniProt O75030)
Experiment: MITF inhibitors, potency by titration, dose response, biochemical, AlphaScreen, human (AID 1259371)
Conditions: AlphaScreen biochemical MITF assay, signal inhibition

Structure (SMILES): O=[N+]([O-])c1cc2[nH]c3cc([N+](=O)[O-])c([N+](=O)[O-])cc3c2cc1[N+](=O)[O-]
- IC50: 469 nM
